In PubChem BioAssay AID2599 (Sanford-Burnham Center for Chemical Genomics, 2010):
The entries are a selection whose mix differs from that of the whole data set. The source made the active and inactive calls.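 The calls were made as follows: active = inhibition above about 50% at the single tested dose (limit read from the data); inactive = the rest.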

By UniProt entry, the sequences of proteins in these tests, tags left out. Residues count along the entry.
UniProt Q9GZR1, 628-1112 limits assumed: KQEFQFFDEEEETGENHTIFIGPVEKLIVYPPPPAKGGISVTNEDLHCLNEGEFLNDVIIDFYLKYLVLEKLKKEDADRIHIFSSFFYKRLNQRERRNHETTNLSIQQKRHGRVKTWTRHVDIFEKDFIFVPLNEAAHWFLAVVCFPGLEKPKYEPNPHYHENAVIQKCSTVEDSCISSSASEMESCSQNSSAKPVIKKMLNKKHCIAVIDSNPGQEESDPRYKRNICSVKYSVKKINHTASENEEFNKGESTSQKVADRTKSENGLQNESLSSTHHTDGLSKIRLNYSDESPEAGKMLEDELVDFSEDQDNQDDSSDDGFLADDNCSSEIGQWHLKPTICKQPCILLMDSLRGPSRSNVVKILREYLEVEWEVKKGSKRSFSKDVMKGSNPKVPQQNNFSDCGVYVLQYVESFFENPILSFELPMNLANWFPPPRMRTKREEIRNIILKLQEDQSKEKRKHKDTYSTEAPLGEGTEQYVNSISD

molecular target: Sentrin-specific protease 6 (Homo sapiens) (UniProt Q9GZR1); experiment: SENP6 protease inhibitors, primary screen, biochemical, luminescence, uHTS (AID 2599); details: Recombinant SENP6 catalytic domain, aminoluciferin luminescence; at 10 µM; stronger effect = higher value;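 also: plate controls were DMSO wells with enzyme for no effect and DMSO wells lacking enzyme for full effect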

SMILES	inhibition
COc1ccccc1OP(C)(=O)Nc1cccc(Br)c1 (stereo unspecified)	inactive: -10.2%
CCOC(=O)c1ccc(NP(C)(=O)Oc2cc(C)cc(C)c2)cc1 (stereo unspecified)	inactive: 15.5%
Cc1cc(C)cc(OP(C)(=O)Nc2ccc(C)cc2C)c1 (stereo unspecified)	inactive: -15.9%
Cc1ccc(C)c(NP(C)(=O)Oc2ccccc2)c1 (stereo unspecified)	inactive: -0.479%
Cc1cc(C)cc(OP(C)(=O)Nc2ccccn2)c1 (stereo unspecified)	inactive: -1.59%
CP(=O)(Nc1cccc(Br)c1)Oc1ccccc1 (stereo unspecified)	inactive: 6.54%
O=C(O)c1cccc(Nc2c([N+](=O)[O-])cc([N+](=O)[O-])cc2[N+](=O)[O-])c1	inactive: 5.27%
CC1=NCCc2c1[nH]c1ccccc21.O=[N+]([O-])c1cc([N+](=O)[O-])c(O)c([N+](=O)[O-])c1	inactive: 8.36%
CCOC(=O)C(CC)C1=NC(C)(C)Cc2ccccc21.O=[N+]([O-])c1cc([N+](=O)[O-])c(O)c([N+](=O)[O-])c1 (stereo unspecified)	inactive: 10.8%
CC1=C2N=C(C=C3N=C(C(C)=C4[N-][C@@](C)([C@@H]5N=C1[C@](C)(CCC(=O)NC[C@@H](C)OP(=O)([O-])O[C@H]1[C@@H](O)[C@@H](n6cnc7cc(C)c(C)cc76)O[C@@H]1CO)[C@H]5CC(N)=O)[C@@](C)(CC(N)=O)[C@@H]4CCC(N)=O)[C@@](C)(CC(N)=O)[C@@H]3CCC(N)=O)C(C)(C)[C@@H]2CCC(N)=O.[C-]#N.[Co+3]	active: 58.8%
O=[N+]([O-])c1cc([N+](=O)[O-])c(Nc2nnnn2CCO)c([N+](=O)[O-])c1	inactive: -0.469%
COc1ccccc1OP(C)(=O)Nc1c(C)cccc1C (stereo unspecified)	inactive: -10.2%
CN1CCCCC1COC(=O)C1(O)c2ccccc2CCc2ccccc21 (stereo unspecified)	inactive: -5.66%
CCCOc1ccc(NP(C)(=O)Oc2ccc(Cl)cc2)cc1 (stereo unspecified)	inactive: -15.5%
CP(=O)(Nc1ccc(SC(F)(F)F)cc1)Oc1ccccc1 (stereo unspecified)	inactive: -2.86%
O=[N+]([O-])c1cc([N+](=O)[O-])c(-n2nnc3ccccc32)c([N+](=O)[O-])c1	inactive: 11.1%
O=[N+]([O-])c1cc([N+](=O)[O-])c(-c2cnn(-c3ccccc3)c2)c([N+](=O)[O-])c1	inactive: 18.2%
Cc1nc2ccc3ccccc3c2s1.O=[N+]([O-])c1cc([N+](=O)[O-])c(O)c([N+](=O)[O-])c1	inactive: -22.8%
CP(=O)(Oc1ccccc1)OC(c1ccccc1)C(F)(F)F (stereo unspecified)	inactive: -1.2%

SMILES	inhibition
Cc1cccc(C)c1OP(C)(=O)Nc1ccc(SC(F)(F)F)cc1 (stereo unspecified)	inactive: -15.6%
CP(=O)(Nc1ccc(SC(F)(F)F)cc1)Oc1ccc(Cl)cc1 (stereo unspecified)	inactive: -54%
Cc1cc(C)cc(OP(C)(=O)Nc2ccc(SC(F)(F)F)cc2)c1 (stereo unspecified)	inactive: -2.37%
CP(=O)(NC(=O)Nc1ccccc1)Oc1ccccc1 (stereo unspecified)	inactive: -6.52%
CCc1ccc(OP(C)(=O)N2CCN(c3ccc([N+](=O)[O-])cc3)CC2)cc1 (stereo unspecified)	inactive: 0.575%
CCOC(=O)c1ccc(NP(C)(=O)Oc2ccc(OC)cc2)cc1 (stereo unspecified)	inactive: -5.98%
O=[N+]([O-])c1cc([N+](=O)[O-])c(O)c([N+](=O)[O-])c1.c1ccc(Oc2ccncc2)cc1	inactive: -4.33%
CCOP(C)(=S)SCC(=O)NC(C)C(=O)O (stereo unspecified)	inactive: -6%
CP(=O)(Nc1ccccn1)Oc1ccc(Cl)cc1 (stereo unspecified)	inactive: 2.44%
CP(=S)(Nn1cnnc1)Oc1ccccc1 (stereo unspecified)	inactive: -4.19%
CP(=O)(Nc1ccccc1Br)Oc1ccccc1 (stereo unspecified)	inactive: -9.95%
COc1ccccc1OP(C)(=O)Nc1ccccc1 (stereo unspecified)	inactive: -12.3%
O=[N+]([O-])c1cc([N+](=O)[O-])c(Nc2cccnc2)c([N+](=O)[O-])c1	inactive: 12%
Cc1cccc(C)c1OP(C)(N)=O (stereo unspecified)	inactive: 9.37%
CC(C)(C)c1ccc(OP(C)(=O)Nc2ccc(SC(F)(F)F)cc2)cc1 (stereo unspecified)	inactive: -22.3%
Cc1ccc(NP(C)(=O)Oc2ccccc2)c(C)c1 (stereo unspecified)	inactive: 3.61%
COc1ccccc1OP(C)(=O)Nc1ccc(C)cc1 (stereo unspecified)	inactive: -4.6%
CCOC(=O)c1ccc(NP(C)(=O)Oc2ccccc2)cc1 (stereo unspecified)	inactive: -9.73%
Cc1cc(C)cc(OP(C)(N)=O)c1 (stereo unspecified)	inactive: 1.02%

SMILES	inhibition
COc1ccc(OP(C)(=O)Nc2cccc(F)c2)cc1 (stereo unspecified)	inactive: -1.84%
COc1ccccc1OP(C)(=O)Nc1cc(Cl)ccc1C (stereo unspecified)	inactive: -11.4%
CCN(CC)CCCOC(=O)C(O)(c1ccccc1)c1ccccc1	inactive: -0.788%
COc1ccccc1OP(C)(=O)Nc1ccc(Br)cc1 (stereo unspecified)	inactive: -29%
COc1ccc(OP(C)(=O)Nc2ccccn2)cc1 (stereo unspecified)	inactive: -31%
CN(C)CCOC(=O)C(O)(c1ccccc1)C1CCCC1 (stereo unspecified)	inactive: 9.14%
Cc1c(NP(C)(=O)Oc2ccc(C(C)C)cc2)c(=O)n(-c2ccccc2)n1C (stereo unspecified)	inactive: 2.21%
O=[N+]([O-])c1cc([N+](=O)[O-])c(Nc2ccccn2)c([N+](=O)[O-])c1	inactive: 33.5%
COc1ccccc1OP(C)(=O)Nc1ccc(C)cc1C (stereo unspecified)	inactive: 26.8%
CP(=O)(Nc1ccccn1)Oc1ccccc1 (stereo unspecified)	inactive: 8.07%
CCc1ccc(OP(C)(=O)O)cc1	inactive: 6.83%
Cc1cc(C)cc(OP(C)(=O)Nc2cccc(C(F)(F)F)c2)c1 (stereo unspecified)	inactive: 12.1%
COc1ccccc1OP(C)(=O)Nc1ccc(C)c(C)c1 (stereo unspecified)	inactive: -16.2%
COc1ccc(OP(C)(=O)Nc2ccccc2Br)cc1 (stereo unspecified)	inactive: -0.379%
Cc1nc2ccc3ccccc3c2o1.O=[N+]([O-])c1cc([N+](=O)[O-])c(O)c([N+](=O)[O-])c1	inactive: -3.95%
CP(=O)(Nc1ccc(Cl)cc1Cl)Oc1ccccc1 (stereo unspecified)	inactive: 1.75%
CP(=O)(OCCOc1ccccc1)OCCOc1ccccc1	inactive: 7.79%
Nc1ccc2c(ccc3cccnc32)n1.O=[N+]([O-])c1cc([N+](=O)[O-])c(O)c([N+](=O)[O-])c1	inactive: -17.2%
